The numbers were not newly measured in publication PMC8200100, which cites them from elsewhere.

By UniProt entry, the sequences of proteins in these tests, tags left out. Residues count along the entry.
UniProt P08138, 29-250: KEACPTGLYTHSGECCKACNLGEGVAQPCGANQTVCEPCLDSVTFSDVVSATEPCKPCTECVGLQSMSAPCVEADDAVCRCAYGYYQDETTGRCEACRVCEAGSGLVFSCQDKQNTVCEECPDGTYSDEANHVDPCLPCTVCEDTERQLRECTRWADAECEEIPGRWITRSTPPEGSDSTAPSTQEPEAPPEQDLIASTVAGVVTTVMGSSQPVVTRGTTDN
UniProt P04629, 33-423: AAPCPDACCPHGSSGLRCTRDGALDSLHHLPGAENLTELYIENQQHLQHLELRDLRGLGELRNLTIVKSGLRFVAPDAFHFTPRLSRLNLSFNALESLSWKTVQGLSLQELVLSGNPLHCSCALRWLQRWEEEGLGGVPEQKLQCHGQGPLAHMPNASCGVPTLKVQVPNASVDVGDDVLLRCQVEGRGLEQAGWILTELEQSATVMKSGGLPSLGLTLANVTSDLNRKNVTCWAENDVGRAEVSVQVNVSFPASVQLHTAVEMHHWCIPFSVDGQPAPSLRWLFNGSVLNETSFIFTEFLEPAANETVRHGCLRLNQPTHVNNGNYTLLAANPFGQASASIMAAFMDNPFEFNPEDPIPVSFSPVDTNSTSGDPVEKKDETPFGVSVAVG
UniProt P01138, 122-241: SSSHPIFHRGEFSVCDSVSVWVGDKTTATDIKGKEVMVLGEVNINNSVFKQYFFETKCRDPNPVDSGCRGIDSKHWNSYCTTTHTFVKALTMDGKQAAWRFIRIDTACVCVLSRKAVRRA

Read-outs that look alike come from different tables or passages of the source.

By Kd is commonly meant a measure of binding affinity in units of concentration.

One data set has as its target p75NTR (Homo sapiens) (UniProt P08138).
In data set [1] the target is TrkA (Homo sapiens) (UniProt P04629).
Data set [2] has the same target. This is another data set of the same source.

Take NGF (from UniProt P01138): the Kd in the data set with p75NTR (Homo sapiens) is 1.5 nM; in the data set with TrkA (Homo sapiens) [1], 1.5 nM; with TrkA (Homo sapiens) [2], 0.0028 nM.
